Assay results as given in patent publication US7989464B2, “mGluR1 antagonists as therapeutic agents” (Schering Corporation, priority 2004, dated 2011).

Amino acid sequences for entries named in this document (tags omitted). Residues count along the entry.
UniProt Q13255, 19-1194 limits assumed: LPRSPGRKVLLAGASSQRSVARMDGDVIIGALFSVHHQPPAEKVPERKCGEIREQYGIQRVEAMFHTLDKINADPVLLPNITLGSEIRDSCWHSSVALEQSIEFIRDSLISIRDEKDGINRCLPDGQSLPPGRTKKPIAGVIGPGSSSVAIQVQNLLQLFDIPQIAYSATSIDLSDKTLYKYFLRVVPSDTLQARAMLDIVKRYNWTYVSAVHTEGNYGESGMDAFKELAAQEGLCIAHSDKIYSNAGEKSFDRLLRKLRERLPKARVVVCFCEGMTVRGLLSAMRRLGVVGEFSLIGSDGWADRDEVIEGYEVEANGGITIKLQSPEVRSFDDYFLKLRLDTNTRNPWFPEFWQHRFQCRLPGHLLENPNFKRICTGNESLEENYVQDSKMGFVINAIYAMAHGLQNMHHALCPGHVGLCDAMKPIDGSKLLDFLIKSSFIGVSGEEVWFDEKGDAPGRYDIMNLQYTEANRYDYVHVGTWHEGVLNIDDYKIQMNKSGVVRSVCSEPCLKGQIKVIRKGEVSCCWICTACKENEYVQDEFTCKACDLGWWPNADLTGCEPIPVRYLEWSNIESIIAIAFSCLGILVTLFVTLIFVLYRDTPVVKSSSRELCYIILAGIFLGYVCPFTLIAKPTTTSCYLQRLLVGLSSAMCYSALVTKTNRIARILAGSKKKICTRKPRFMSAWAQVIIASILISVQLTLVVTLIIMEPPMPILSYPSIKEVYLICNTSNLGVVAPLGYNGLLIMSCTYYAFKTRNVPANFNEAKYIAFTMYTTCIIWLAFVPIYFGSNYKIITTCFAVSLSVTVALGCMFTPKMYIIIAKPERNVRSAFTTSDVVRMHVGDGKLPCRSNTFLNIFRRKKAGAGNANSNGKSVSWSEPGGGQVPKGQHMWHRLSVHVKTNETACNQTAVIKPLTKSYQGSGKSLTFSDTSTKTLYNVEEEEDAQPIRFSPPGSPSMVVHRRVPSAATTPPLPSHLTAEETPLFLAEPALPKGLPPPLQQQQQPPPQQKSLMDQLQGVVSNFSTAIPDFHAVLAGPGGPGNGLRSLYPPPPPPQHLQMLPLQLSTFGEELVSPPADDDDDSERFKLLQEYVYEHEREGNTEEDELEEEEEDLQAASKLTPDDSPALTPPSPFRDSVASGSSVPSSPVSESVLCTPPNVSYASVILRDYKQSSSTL

Biological target: hmGluR1 receptor (Homo sapiens, UniProt Q13255)
Experiment: IC50 determination: intracellular calcium mobilization (FLIPR) upon Quisqualate stimulation in CHO cells stably expressing hmGluR1
Format: cell-based
Conditions: read-out: IC50 Class, against Quisqualate 1 μM (EC80)

## Cc1ccc(-n2cnc3c(sc4nccc(CN)c43)c2=O)cc1
  IC50: > 1000 nM
